Converted amounts (≈) assume the structure as drawn. Structures can show the parent of a compound that is named as a salt. Where two headings read alike, the source gives them in different places.

The test system of the test is E. granulosus PSCs. The experiment in a line: microbe, parasite or virus in culture. The note with it: Echinococcus granulosus.
The mark [1] stands for this setting: 72 h, read-out: Anti-echinicoccus activity, Dose confirmaiton 0.5uM, second-stage dose-response, 0.5 μM, PSCs.
Where [2] appears, read: 72 h, read-out: Anti-echinicoccus activity, Dose confirmaiton 2uM, second-stage dose-response, 2 μM, PSCs.
The mark [3] stands for this setting: 72 h, read-out: Anti-echinicoccus activity, Dose confirmaiton 10uM, second-stage dose-response, 10 μM, PSCs.
Setting [4] is: 72 h, read-out: Anti-echinicoccus activity, Dose confirmaiton 50uM, second-stage dose-response, 50 μM, PSCs.
Setting [5] is: 72 h, read-out: Anti-echinicoccus activity, Initiate hits 50uM, primary screen, 50 μM, PSCs, 3-day incubation, PI staining (death rate of PSCs).
Where [6] appears, read: read-out: Anti-echinococcus activity % of death, 0.5uM.
Setting [7] is: read-out: Anti-echinococcus activity % of death, 2uM.
The mark [8] stands for this setting: read-out: Anti-echinococcus activity % of death, 10uM.
Setting [9] is: read-out: Anti-echinococcus activity % of death, 50uM.
The mark [10] stands for this setting: read-out: Anti-echinococcus activity % of death.
[11] abbreviates: read-out: Anti-echinococcus activity % of death, 0.5uM, E. granulosus PSCs, compound at 0.5uM.
Setting [12] is: read-out: Anti-echinococcus activity % of death, 2uM, E. granulosus PSCs, compound at 2uM.
Setting [13] is: read-out: Anti-echinococcus activity % of death, 10uM, E. granulosus PSCs, compound at 10uM.
Where [14] appears, read: read-out: Anti-echinococcus activity % of death, 50uM, E. granulosus PSCs, compound at 50uM.

In the case of `CCc1ccc(OCc2ccccc2C(=O)Nc2ccc3nc(C)cc(N)c3c2)cc1` [JTC-801, reference compound], under setting [1], the killing at 0.5 µM was found to be 0%. Further, the killing at 2 µM under setting [2] is 0%. In addition, under setting [3], the killing at 10 µM worked out at 40%. Also, the killing at 50 µM was found to be 100% under setting [4] and 100% under setting [5]. Where the note is “72 h, read-out: MIC90 (minimum inhibitory concentration causing a 90% death of PSCs)”, the MIC90 is 16.4 µM (≈ 6.75 µg/mL). In addition, the mortality at 0.5 µM under setting [6] was 0%. The mortality at 2 µM under setting [7] stood at 0%. Also, the mortality at 10 µM under setting [8] came out at 100%. Also, the mortality at 50 µM under setting [9] is 100%.
`CC(C)c1cc(C(C)C)c(-c2csc(N(CCN(C)C)Cc3cccnc3)n2)c(C(C)C)c1` [Foropafant]: under setting [10], the mortality at 0.5 µM was 0%, the mortality at 2 µM was 0%, the mortality at 10 µM was 0% and the mortality at 50 µM was 100%.
As to `COc1ccc(F)c(F)c1C(=O)c1cnc(NC2CCN(S(C)(=O)=O)CC2)nc1N` [RO-4584820], the mortality at 0.5 µM under setting [6] stood at 0%. For the same molecule, the mortality at 2 µM under setting [7] was determined as 0%. Besides, the mortality at 10 µM under setting [8] was found to be 0%. In addition, the mortality at 50 µM under setting [9] stood at 100%.
Take `C[C@@H]1CC[C@@]2(NC1)O[C@H]1C[C@H]3[C@@H]4CC=C5C[C@@H](O[C@@H]6O[C@H](CO)[C@H](O)[C@H](O[C@@H]7O[C@H](CO)[C@@H](O)[C@H](O)[C@H]7O)[C@H]6O[C@@H]6O[C@@H](C)[C@H](O)[C@@H](O)[C@H]6O)CC[C@]5(C)[C@H]4CC[C@]3(C)[C@H]1[C@@H]2C` [Solasonine]: the mortality at 0.5 µM under setting [6] came out at 0%. Moreover, the mortality at 2 µM under setting [7] came out at 0%. Under setting [8], the mortality at 10 µM was found to be 0%. Under setting [9], the mortality at 50 µM amounted to 100%.
With `CC(C)(SCC(=O)Nc1ccc([As](O)O)cc1)[C@@H](N)C(=O)O` [PENAO], the mortality at 0.5 µM under setting [6] was 0%. For the same molecule, the mortality at 2 µM under setting [7] amounted to 0%. Also, under setting [8], the mortality at 10 µM was 0%. Further, the mortality at 50 µM under setting [9] amounted to 100%.
With `O=C1C=CC(O)(c2cc3ccccc3n2S(=O)(=O)c2ccccc2)C=C1` [BW-114], under setting [6], the mortality at 0.5 µM was determined as 0%. Further, the mortality at 2 µM under setting [7] came out at 0%. Under setting [8], the mortality at 10 µM is 50%. Besides, under setting [9], the mortality at 50 µM amounted to 100%.
For the molecule `Cc1cccc(C)c1OCCN1CCC(C(O)(c2ccc(F)cc2)c2ccc(F)cc2)CC1` [LAS 30538], under setting [10], the mortality at 0.5 µM came to 0%, the mortality at 2 µM is 0%, the mortality at 10 µM is 0% and the mortality at 50 µM turned out to be 100%.
As for `O=c1[nH]c(CCl)nc2sc3c(c12)CCCC3` [LM 1554], under setting [10], the mortality at 0.5 µM came out at 0%, the mortality at 2 µM came out at 0%, the mortality at 10 µM was found to be 0% and the mortality at 50 µM worked out at 100%.
As to `CN[C@@H]1C[C@H]2O[C@@](C)([C@@H]1OC)n1c3ccccc3c3c4c(c5c6ccccc6n2c5c31)C(=O)NC4` [Staurosporine], the mortality at 0.5 µM under setting [6] worked out at 100%. Also, the mortality at 2 µM under setting [7] is 100%. Also, the mortality at 10 µM under setting [8] turned out to be 100%. For the same molecule, the mortality at 50 µM under setting [9] was 100%.
Regarding `CN1C/C=C/CCOc2cccc(c2)-c2ccnc(n2)Nc2cccc(c2)C1` [TG-02], under setting [11], the mortality at 0.5 µM amounted to 0%. The mortality at 2 µM under setting [12] is 0%. In addition, the mortality at 10 µM under setting [13] turned out to be 0%. Besides, under setting [14], the mortality at 50 µM turned out to be 100%.
Take `COc1cccc2c1C(=O)c1c(O)c3c(c(O)c1C2=O)C[C@@](O)(C(C)=O)C[C@@H]3O[C@H]1C[C@H](N)[C@H](O)[C@H](C)O1` [Daunorubicin HCl, reference compound]: under “72 h, read-out: Anti-echinicoccus activity, Dose confirmaiton 0.5uM”, the killing at 0.5 µM came out at 100%. The killing at 2 µM (72 h, read-out: Anti-echinicoccus activity, Dose confirmaiton 2uM) was 100%. Moreover, the killing at 10 µM (72 h, read-out: Anti-echinicoccus activity, Dose confirmaiton 10uM) was 100%. Moreover, the killing at 50 µM (72 h, read-out: Anti-echinicoccus activity, Dose confirmaiton 50uM) amounted to 100% and the killing at 50 µM (72 h, read-out: Anti-echinicoccus activity, Initiate hits 50uM) worked out at 100%.
`Oc1c(Cl)cc(Cl)c(Cl)c1Cc1c(O)c(Cl)cc(Cl)c1Cl` [HEXACHLOROPHENE]: the mortality at 0.5 µM under setting [6] stood at 0%. The mortality at 2 µM under setting [7] was 0%. The mortality at 10 µM under setting [8] worked out at 100%. For the same molecule, the mortality at 50 µM under setting [9] was 100%.
As to `Cc1ccc(Sc2ccccc2N2CCNCC2)c(C)c1` [Vortioxetine hydrobromide], under setting [10], the mortality at 0.5 µM is 0%, the mortality at 2 µM was 0%, the mortality at 10 µM worked out at 0% and the mortality at 50 µM was found to be 100%.
Turning to `Cc1cc(F)ccc1[C@H]1CNCCN1C(=O)N(C)[C@H](C)c1cc(C(F)(F)F)cc(C(F)(F)F)c1` [VESTIPITANT], under setting [6], the mortality at 0.5 µM turned out to be 0%. The mortality at 2 µM under setting [7] was determined as 0%. Besides, the mortality at 10 µM under setting [8] was determined as 0%.
On to `CN(C)CCCNc1c(C#N)[n+]([O-])c2cc(Cl)ccc2[n+]1[O-]` [Q-85], for which the mortality at 0.5 µM under setting [6] was determined as 0%. In addition, the mortality at 2 µM under setting [7] came out at 0%. Also, the mortality at 10 µM under setting [8] stood at 0%. In addition, under setting [9], the mortality at 50 µM amounted to 100%.
For `COc1cc(C)c2c(Oc3cccc(C(F)(F)F)c3)c(OC)cc(NC(C)CCCN)c2n1` (centres unmarked) [tafenoquine], under setting [6], the mortality at 0.5 µM is 0%. Besides, the mortality at 2 µM under setting [7] was found to be 0%. The mortality at 10 µM under setting [8] was 0%. Also, the mortality at 50 µM under setting [9] worked out at 100%.
As for `[O-][n+]1ccccc1S` [omadine], the mortality at 0.5 µM under setting [11] worked out at 0%. Further, the mortality at 2 µM under setting [12] was found to be 0%. Under setting [13], the mortality at 10 µM turned out to be 0%.
Turning to `Clc1ccc(C(c2ccc(Cl)cc2)n2cc[n+](CC(OCc3ccc(Cl)cc3Cl)c3ccc(Cl)cc3Cl)c2)cc1` (centres unmarked) [Calmidazolium chloride, reference compound], under setting [1], the killing at 0.5 µM was 0%. In addition, the killing at 2 µM under setting [2] was 0%. Besides, the killing at 10 µM under setting [3] is 50%. Besides, the killing at 50 µM runs as follows: under setting [4], 100%; under setting [5], 79%.
For `OC1(c2ccc(Cl)c(C(F)(F)F)c2)CCN(CCCC(c2ccc(F)cc2)c2ccc(F)cc2)CC1` [Penfluridol, reference compound], the killing at 0.5 µM under setting [1] was 0%. Besides, under setting [2], the killing at 2 µM came out at 0%. In addition, the mortality at 0.5 µM under setting [11] is 0%. Also, the mortality at 2 µM under setting [12] was 0%. Further, the mortality at 10 µM under setting [13] turned out to be 100%. In addition, under setting [14], the mortality at 50 µM is 100%.
For `Cn1cncc1[C@@](N)(c1ccc(Cl)cc1)c1ccc2c(c1)c(-c1cccc(Cl)c1)cc(=O)n2C` [tipifarnib], the mortality at 0.5 µM under setting [11] was 0%. Further, under setting [12], the mortality at 2 µM was 0%. Further, the mortality at 10 µM under setting [13] came to 0%. Moreover, the mortality at 50 µM under setting [14] came to 100%.
Consider `Cc1ccc(C(=O)OCc2ccc([C@@H](CN)C(=O)Nc3ccc4cnccc4c3)cc2)c(C)c1` [AR-13324], for which the mortality at 0.5 µM under setting [6] turned out to be 0%. Moreover, under setting [7], the mortality at 2 µM worked out at 0%. Further, the mortality at 10 µM under setting [8] was found to be 0%. The mortality at 50 µM under setting [9] turned out to be 100%.
Take `CSc1ccc2c(c1)N(CCC1CCCCN1C)c1ccccc1S2` (centres unmarked) [Thioridazine hydrochloride, reference compound]: the killing at 0.5 µM under setting [1] came out at 0%. Further, under setting [2], the killing at 2 µM turned out to be 0%. In addition, the killing at 10 µM under setting [3] was 0%. The killing at 50 µM reads like this: under setting [4], 100%; under setting [5], 100%.
Regarding `COc1c(OC)c(OC(C)=O)c2cc(Cl)ccc2c1OC(C)=O` [LONAPALENE], the mortality at 0.5 µM under setting [6] stood at 0%. Moreover, the mortality at 2 µM under setting [7] stood at 0%. The mortality at 10 µM under setting [8] turned out to be 50%. In addition, the mortality at 50 µM under setting [9] came out at 100%.
`CCOc1cc2ncc(C#N)c(Nc3ccc(F)c(Cl)c3)c2cc1NC(=O)/C=C/CN(C)C` [pelitinib]: the mortality at 0.5 µM under setting [6] was determined as 0%. Moreover, the mortality at 2 µM under setting [7] was 0%. Besides, the mortality at 10 µM under setting [8] came to 30%. Besides, the mortality at 50 µM under setting [9] stood at 100%.
`COCC(=O)O[C@]1(CCN(C)CCCc2nc3ccccc3[nH]2)CCc2cc(F)ccc2[C@@H]1C(C)C` [mibefradil dihydrochloride,Tau]: the mortality at 0.5 µM under setting [11] was determined as 0%. Under setting [12], the mortality at 2 µM was determined as 0%. Also, the mortality at 10 µM under setting [13] turned out to be 0%. In addition, under setting [14], the mortality at 50 µM stood at 100%.
Consider `Cc1cc(/N=C(\Nc2nccs2)NC2CCCCC2)c2ccccc2n1` [timegadine], for which, under setting [10], the mortality at 0.5 µM was 0%, the mortality at 2 µM was 0%, the mortality at 10 µM was 0% and the mortality at 50 µM is 100%.
For `O=C(Nc1cc(C(F)(F)F)ccc1C(F)(F)F)c1cc(Br)cc(Br)c1O` [0/IMD-0560], under setting [6], the mortality at 0.5 µM turned out to be 0%. Further, the mortality at 2 µM under setting [7] was determined as 0%. For the same molecule, the mortality at 10 µM under setting [8] turned out to be 60%. Further, the mortality at 50 µM under setting [9] is 100%.
For `Cc1cccc(C)c1NC(=O)CN1CCN(CCCC(c2ccc(F)cc2)c2ccc(F)cc2)CC1` [lidoflazine], the mortality at 0.5 µM under setting [11] amounted to 0%. Further, the mortality at 2 µM under setting [12] came out at 0%. For the same molecule, the mortality at 10 µM under setting [13] amounted to 0%. Also, the mortality at 50 µM under setting [14] worked out at 100%.
`C[C@@H]1C[C@H]2O[C@@H]2/C=C\C=C\C(=O)Cc2c(Cl)c(O)cc(O)c2C(=O)O1` [Radicicol]: the mortality at 0.5 µM under setting [11] worked out at 0%. The mortality at 2 µM under setting [12] stood at 0%. Besides, under setting [13], the mortality at 10 µM stood at 0%. Moreover, the mortality at 50 µM under setting [14] is 100%.
